Measured values taken from patent US20230295236A1, “COMPOUNDS FOR USE IN INFLAMMATORY CONDITIONS” (priority 2020, published 2023).
Values joined by “and” are separate entries in the source; they are usually repeats but may differ in a detail not shown here. Equal entries are not always repeated. “Also recorded” adds a separate entry of the source. Where two headings read alike, the source gives them in different places.

Assays:
[1] = test system: NF-κB reporter (Luc)-THP-1 human monocytic cells; assay: MTT cell proliferation assay (cytotoxicity control); assay type: cell-based; details: activators combined with 100 nM plitidepsin, 6 hours
[2] = test system: IL-1, IL-6, IL-8 and TNF-α secretion; assay: ELISA for TLR-triggered secreted cytokines in THP-1 cells; assay type: cell-based, human; details: 100 nM plitidepsin, 6 hours; TNF-α stimulated THP-1 cells
[3] = test system: IL-6, IL-10 and TNF-α secretion; assay: Ex vivo LPS-B5-triggered cytokine secretion by bronchoalveolar lavage cells of treated mice; assay type: in vivo, mouse; details: mice 1 mg/kg i.v., BAL collected 12 hours after, ex vivo 15 µg/mL LPS-B5 for 3 or 6 hours
[4] = Pharmacokinetics in plasma and lung, mice; assay type: in vivo, mouse
[5] = Pharmacokinetics in plasma and lung, rats; assay type: in vivo; details: rat, single intravenous dose 0.2 mg/kg, read-out: lung-to-plasma ratio (lungAUC0-∞/plasmaAUC0-∞)
[6] = Pharmacokinetics in plasma and lung, hamsters; assay type: in vivo; details: hamster, single intravenous dose 0.2 mg/kg, read-out: lung-to-plasma ratio (lungAUC0-∞/plasmaAUC0-∞)
HCoV-229E = assay type: cell-based
SARS-CoV-2 [7] = assay: Mouse models of SARS-CoV-2 infection (hACE2); assay type: in vivo
[8] = test system: WNV-GFP (lineage 2; molecular clone WN956); assay: microbe, parasite or virus in culture; assay type: cell-based, West Nile virus
[9] = Cell biomass (DAPI) in Huh7 cells; assay type: cell-based, human; details: human, Huh7 hepatoma cells
[10] = test system: Huh7 human hepatoma cells; assay: Cell biomass (DAPI) in Huh7 cells; assay type: cell-based; details: 48 hours
SARS-CoV-2 [11] = assay: Planned Phase II study of single-dose plitidepsin in adult COVID-19 patients at discharge from the Emergency Department; assay type: in vivo, human; details: single dose of plitidepsin (7.5 mg), day 6 after the administration; expected result of planned study
Vero E6 cells = Vero E6 cells without virus, 3 days
[12] = test system: WNV-GFP (lineage 2; molecular clone WN956); assay: microbe, parasite or virus in culture; details: West Nile virus, Vero C1008, 48 h
[13] = female, plasma, Mouse (F) C57BL6/J, 1.0 mg/kg single intravenous bolus

With CC[C@H](C)[C@H]1NC(=O)[C@@H](NC(=O)[C@@H](CC(C)C)N(C)C(=O)[C@@H]2CCCN2C(=O)C(C)=O)[C@@H](C)OC(=O)[C@H](Cc2ccc(OC)cc2)N(C)C(=O)[C@@H]2CCCN2C(=O)[C@H](CC(C)C)NC(=O)[C@@H](C)C(=O)[C@H](C(C)C)OC(=O)C[C@@H]1O [plitidepsin] the “Survival (MTT assay)” value [1] was “No cytotoxic effect was detected”, the “Secretion of IL-8 and TNF-α (ELISA)” value [2] was “unable to reduce IL-8 and TNF-α” and the “LPS-B5-induced secretion of IL-6, IL-10 and TNF-α by BAL cells” value [3] was “failed to show a marked increase in IL 6, IL 10, and TNFα; also recorded: clearly inhibited the production of pro-inflammatory cytokines IL-6, and TNF-α; also recorded: significantly reduce the secretion of IL-6, IL-10 and TNFα”. The Kp ([4]; C57BL6/J, mouse, lung and plasma, mice, single intravenous dose 1.0 mg/kg, read-out: lung-to-plasma ratio (lungAUC0-∞/plasmaAUC0-∞)) was 133, the AUC(0-inf) [4, 13] was 225 ng·h/mL and the Cmax [4, 13] was 50.7 ng/mL. It also gave a clearance [4, 13] of 73.3 mL/min/kg, a Vd ([4]; female, plasma, Mouse (F) C57BL6/J, 1.0 mg/kg single intravenous bolus, read-out: Vdss) of 102 L/kg and a half-life ([4]; female, plasma, Mouse (F) C57BL6/J, 1.0 mg/kg single intravenous bolus, read-out: t½ (converted)) of 1090 min. For the same compound, the Kp [5] was 460, the Kp [6] was 909 and the “Lowest concentration with antiviral effect” value (HCoV-229E) was ≤ 0.5 nM and ≤ 0.555 µg/l. The “Antiviral effects in vivo” value (SARS-CoV-2 [7]; mouse model of adenovirus-mediated hACE2 infected with SARS-CoV-2) was “potent antiviral effects in vivo”, the “Antiviral effects in vivo” value (SARS-CoV-2 [7]; transgenic K18-hACE2 mice infected with SARS-CoV-2) was “potent antiviral effects in vivo” and the Therapeutic index ([8]; Huh7 cells) was 22. The “Concentration with antiviral activity in the absence of measurable interference with cell viability (p<0.05)” value ([8]; Huh-7 cells) was 1.5 nM, the EC50 ([8]; West Nile virus, Huh-7, Huh7 cells, 48 hours, MOI 0.01, read-out: EC50 infection efficiency) was 0.665 nM and the EC90 ([8]; West Nile virus, Huh-7, Huh7 cells, 48 hours, MOI 0.01, read-out: EC90 infection efficiency) was 3.86 nM. The CC50 at 48 h [9] was 14.7 nM, the “Concentration at which loss of cell biomass is statistically significant (p<0.05)” value [10] was 7.2 nM and the “Replication cycle threshold (Ct) value” (SARS-CoV-2 [11]) was “greater than 30”. The “Cytotoxic effects at concentrations inhibiting viral cytopathic effect” value (Vero E6 cells) was “no cytotoxic effects of the drug were observed”, the EC50 ([12]; read-out: EC50 infection efficiency) was 4.9 nM and the EC90 ([12]; read-out: EC90 infection efficiency) was 9.5 nM.
